PubChem BioAssay (NCATS)
This is a selection; strong and weak results do not stand in their true shares. Results filed as inconclusive are left out. Active and inactive are the calls of the source. Unless noted, calls follow the shape of the dose curve; as a rule, active = well fitted curve in the direction sought with a large enough effect; inconclusive = small, poorly fitted or top-dose-only effect, or another doubt; inactive = no such curve, though single readings can be large; an effect the other way counts as inactive or inconclusive.

Tests used:
[1] = molecular target: Mitogen-activated protein kinase 10 (Mus musculus) (UniProt Q61831); assay: JNK3 AlphaScreen Assay (AID 530; active = well fitted curve in either direction with a large enough effect, not every such curve was filed as active;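 also: kinase came from lysate of stimulated human HepG2 cells; signal reports phosphorylation of biotinylated GST-cJun 1-79 at Ser73 with 10 µM ATP; % is scaled to controls: 0 for no effect and ±100 for the full control effect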); details: JNK3 lysate, c-Jun phosphorylation; at 11.4 µM (top of the series) unless noted
In short: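 Kinase buffer: 20 mM Tris-HCl pH 7.6, 10 mM MgCl2, 1 mM DTT, 0.1 mM Na3VO4, 0.01% Tween-20; ATP 10 uM. Substrate biotin-GST-cJun(1-79), enzyme from activated HepG2 lysates. Detection by Ser73 phospho-antibody AlphaScreen.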

[2] = Cell Viability - N2a (AID 540); details: N2a mouse neuroblastoma cell viability; at 92.2 µM (top of the series);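 also: cells exposed to compound for 40 h at 37 °C; plate controls were DMSO alone for no effect and tamoxifen control for full effect; nearly all actives have a fitted effect of over 45% in size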
In short: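 In this qHTS cytotoxicity screen, ATP-dependent luciferase luminescence reports viable N2a cells after a 40 hr compound exposure in complete culture medium. Potencies are AC50 values from standard Hill equation fits.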

[3] = Cell Viability - HUV-EC-C (AID 542);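 also: cells exposed to compound for 40 hours; % is scaled to controls: 0 for no effect and ±100 for the full control effect; nearly all actives have a fitted effect of over 35% in size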
In short: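 Concentration-dependent ATP loss in HUV-EC-C cells is the measure. Exposure lasts 40 hr at 37 °C; luminescence follows CellTiter-Glo addition, and Hill fits give AC50.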

[4] = Cell Viability - H-4-II-E (AID 543);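 also: potency is read from the fitted curve at half-maximal effect; cells exposed to compound for 40 hours; nearly all actives have a fitted effect of over 35% in size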
In short: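 AC50 from Hill-modelled qHTS concentration-response curves. H-4-II-E rat hepatoma cells in complete medium, 40 hr exposure at 37 °C, viability by CellTiter-Glo ATP luminescence.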

[5] = Cell Viability - SH-SY5Y (AID 544);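 also: cells exposed to compound for 40 hours; nearly all actives have a fitted effect of over 55% in size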
In short: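 Quantitative HTS in SH-SY5Y neuroblastoma cells, 40 hr treatment at 37 °C, ATP content by luciferase luminescence; AC50 from Hill fits.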

[6] = Cell Viability - Mesenchymal (AID 546); details: mesenchymal cells viability, qHTS; at 91.7 µM (top of the series);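 also: cells exposed to compound for 40 hours before reading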
In short: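 CellTiter-Glo luminescence (intracellular ATP, 20 min room temperature) after 40 hr compound exposure at 37 °C of 1000 glomerulus-derived human kidney mesenchymal cells/well; AC50 values obtained by fitting qHTS concentration-response data to the Hill equation.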

[7] = Cellular Toxicity (caspase-3) HepG2 (AID 654); details: HepG2 caspase-3 activation, luminescence, 0% = DMSO only, 100% = tamoxifen; at 92.2 µM (top of the series);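 also: cells exposed to compound for 16 hours before reading; 0% = DMSO alone and 100% = caspase signal from 100 µM tamoxifen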
In short: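 Concentration-response AC50 values reflect caspase-3/7 induction in HepG2 cells after 16 hours of compound exposure, quantified by luminescence from liberated aminoluciferin and referenced to 100 uM tamoxifen as full stimulation.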

[8] = Cellular Toxicity (caspase-3) Jurkat (AID 655); details: Jurkat caspase-3 activation, luminescence, DMSO = 0%, tamoxifen = 100%; at 92.2 µM (top of the series);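 also: cells exposed to compound for 16 h at 37 °C before reading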
In short: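 Luminescent Caspase-Glo 3/7 read-out (20 min, room temperature) after 16 h compound treatment at 37 C of 5000 Jurkat cells per well. AC50 derived by Hill-equation fitting, scaled between DMSO basal and 100 uM tamoxifen stimulation.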

[9] = Cellular Toxicity (caspase-3) HUV-EC-C (AID 656); details: HUV-EC-C cells, caspase-3 activation (apoptosis), vehicle = 0, 100 µM tamoxifen = 100%; at 92.2 µM (top of the series)
In short: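 Luminescent Caspase-Glo 3/7 readout after 16 h, 37 °C compound exposure of HUV-EC-C endothelial cells, 1000 per well, complete medium. AC50 derived by Hill fitting, with DMSO as baseline and 100 uM tamoxifen as full activation.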

[10] = Cellular Toxicity (caspase-3) SHSY5Y (AID 657); details: SH-SY5Y caspase-3 activation, DMSO zero, 10 µM staurosporine = 100%; at 91.7 µM (top of the series)
In short: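 Luminescent Caspase-Glo 3/7 read-out, 1 hr room temperature, follows 16 hours of compound treatment of SH-SY5Y cells at 37 °C. Normalization: DMSO basal, 10 uM staurosporine as 100%; AC50 values from Hill-equation concentration-response fits.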

[11] = Cellular Toxicity (caspase-3) BJ (AID 658); details: BJ fibroblasts, luminescence, normalized: DMSO 0%, staurosporine 100%; at 91.7 µM (top of the series)
In short: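 Caspase-Glo 3/7 luminescence, read 1 hr after reagent at room temperature, in normal BJ fibroblasts exposed 16 hours at 37 °C. AC50 values from Hill-equation concentration-response, scaled between DMSO basal and 10 uM staurosporine as 100%.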

[12] = Cellular Toxicity (caspase-3) MRC-5 (AID 659); details: MRC-5 cells, luminescence, normalized: DMSO 0%, 10 µM staurosporine 100%; at 91.7 µM (top of the series)
In short: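 Luminescent Caspase-Glo 3/7 read-out (1 h, room temperature) after a 16 h, 37 °C compound exposure of MRC-5 lung fibroblasts at 1500 cells/well. Concentration-response AC50 from Hill equation; 0% DMSO, 100% 10 uM staurosporine.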

[13] = Cellular Toxicity (caspase-3) Mesangial (AID 660); details: mesangial cells, normalized: DMSO 0%, 100 µM tamoxifen 100%; at 91.7 µM (top of the series);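 also: combined caspase 3 and 7 activity read by Caspase-Glo luminescence; cells exposed to compound for 16 h before the caspase read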
In short: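 AC50 values come from Hill-equation fits of caspase 3/7 activation, measured as Caspase-Glo luminescence in human glomerular mesangial cells exposed to compound for 16 h at 37 °C; 100% set by 100 uM tamoxifen.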

[14] = Cellular Toxicity (caspase-3) SK-N-SH (AID 661); details: SK-N-SH caspase-3 activation, qHTS, DMSO as zero, staurosporine as full; at 91.7 µM (top of the series)
In short: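 Apoptosis readout in SK-N-SH neuroblastoma: Caspase-Glo 3/7 luminescence following 16 hr treatment in complete culture medium. Normalization used DMSO and 10 uM staurosporine controls.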

[15] = Cellular Toxicity (caspase-3) H-4-II-E (AID 663); details: H-4-II-E rat hepatoma, scaled: DMSO 0%, 100 µM tamoxifen 100%; at 92.2 µM (top of the series);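 also: cells exposed to compound for 16 hr before readout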
In short: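 Caspase 3/7 activation measured by luminescent aminoluciferin substrate cleavage after 16 hr compound treatment of H-4-II-E cells in complete medium. Increase normalized between DMSO (basal) and 100 uM tamoxifen (100%); Hill-equation AC50 from concentration-response.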

Cc1cc([N+](=O)[O-])cc([N+](=O)[O-])c1O
activity change, negative = inhibition [1]: inactive: -1.19% [at 57.1 µM]
activity change, negative = cytotoxicity [2]: active: -115%
Potency [3]: inactive
Potency [4]: active: 39.8 µM
Potency [5]: inactive
activity change, negative = cytotoxicity [6]: inactive: -7.68%
caspase-3 activation [7]: inactive: -2.08%
caspase-3 activation [8]: inactive: -1.76%
caspase-3 activation [9]: inactive: -7.14%
caspase-3 activation [10]: inactive: 0.976%
caspase-3 activation [11]: inactive: -0.613%
caspase-3 activation [12]: inactive: 0.76%
caspase-3 activation [13]: inactive: -0.243%
caspase-3 activation [14]: inactive: -1.97%
caspase-3 activation [15]: inactive: 12.8%
